Data taken from patent publication US20150273057A1, “Combination” (GLAXOSMITHKLINE LLC, priority 2012, published 2015).

Assays:
Experiment in all cases: Cell growth inhibition assay (Cell Titer Glo, 7 days)
Format in all cases: cell-based, Human
A375 = A375 melanoma line, relative to vehicle (DMSO)
Method: (§1) Human colon tumor lines, Colo-205, HT-29, RKO, SW1417, LS411N and human melanoma line A375 were from ATCC. All lines were cultured in RPMI 1640 medium containing 10% fetal bovine serum (FBS).
(§2) All cells were cultured for a minimum of 72 hours prior to cell plating. Cells were assayed in a 96-well tissue culture plate (NUNC 136102) of RPMI medium containing 10% FBS for all cells at 500 cells per well. Approximately 24 hours after plating, cells were exposed to ten, three-fold serial dilutions of Compound B or the combination of Compound B and an EGFR inhibitor, as used herein cetuximab or erlotinib, at a constant molar to molar ratio of 10:1, with or without the addition of 3 nM of Compound A. Cells were incubated in the presence of compounds for 7 days. ATP levels were determined by adding Cell Titer Glo® (Promega) according to the manufacturer's protocol. Briefly, Cell Titer Glo0 was added to each plate, incubated for 30 minutes then luminescent signal was read on the SpectraMax L plate reader with a 0.5 sec integration time.
(§3) Inhibition of cell growth was estimated after treatment with compound or combination of compounds for 7 days and comparing the signal to cells treated with vehicle (DMSO). Cell growth was calculated relative to vehicle (DMSO) treated control wells.

Colo-205 = Colo-205 BRAF V600E mutant CRC line, relative to vehicle (DMSO)
Method: as §1, §2, §3

HT-29 = HT-29 BRAF V600E mutant CRC line, relative to vehicle (DMSO)
Method: as §1, §2, §3

LS411N = LS411N BRAF V600E mutant CRC line, relative to vehicle (DMSO)
Method: as §1, §2, §3

RKO = RKO BRAF V600E mutant CRC line, relative to vehicle (DMSO)
Method: as §1, §2, §3

SW1417 = SW1417 BRAF V600E mutant CRC line, relative to vehicle (DMSO)
Method: as §1, §2, §3

Measured: cell growth inhibition, agent alone

Cetuximab: monoclonal antibody binding EGFR; Fv regions of 225 murine antibody with human IgG1 heavy and kappa light chain constant regions
inactive: all assays above
